# Source: US20260297016A1, “THERAPEUTIC COMPOUNDS” (REGENTS OF THE UNIVERSITY OF MINNESOTA, priority 2023, published 2026)
# System: 661 W cells
# Test: 4-HNE-induced ROS production in 661 W cells
# Conditions: 12.5 μM, 2 hours, 4-HNE 10 μM, 24 hours, n=6
structure (smiles),measurement,value
O=C(Nc1ccc(O)c(NS(=O)(=O)c2ccc(F)cc2)c1)c1ccc(-c2ccccc2)cc1 [SN-011],4-HNE-induced production of ROS,Reduction in 4-HNE-induced production of ROS
